Yeast mating assay 1: variants of the scFv Ab-14

Reference: Engelhart et al. 2022, doi:10.1038/s41597-022-01779-4. File: FLAb, binding data.

The target is the same throughout: PDVDLGDISGINAS, from the HR2 region of SARS-CoV-2 spike.

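The starting antibody came from a phage panning campaign against this peptide. In library AAYL49, one, two or three CDR residues were substituted; doubles and triples were drawn at random. Affinity was read by AlphaSeq, a pooled yeast mating assay with surface-displayed partners. Mating (16 h, 30 °C) was followed by selection of diploids and sequencing of their barcodes. A regression on co-assayed BCL2-family reference pairs converts the normalised counts of each replicate to an apparent Kd. There are three technical replicates.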

The variants keep the light chain, the linker and the frameworks of Ab-14 (scFv order VH, a (GGGGS)3 linker, VL).
VH: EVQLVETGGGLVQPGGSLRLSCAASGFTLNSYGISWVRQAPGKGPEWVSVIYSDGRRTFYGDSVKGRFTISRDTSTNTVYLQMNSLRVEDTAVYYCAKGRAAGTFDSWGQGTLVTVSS
VL: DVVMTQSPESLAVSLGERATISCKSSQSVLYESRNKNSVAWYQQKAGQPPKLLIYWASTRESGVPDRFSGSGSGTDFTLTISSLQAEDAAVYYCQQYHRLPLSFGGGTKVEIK

Positions count from residue 1 of the parent VH; Y60T puts T in place of Y.
Every variant below is changed at Y60 of the VH (sequential numbering).
Values are log10 of the apparent Kd in nM; lower means stronger binding.
Replicates are averaged; those with no signal do not enter the mean.
"nd" marks a missing value. The strain was present, yet no cells mated with the target were sequenced in that replicate, which points to weak or no binding.
The list is sorted by this average, lowest first, undetected variants last.

Y60T/A101E/S107A: 0.87, 1.01, 1.00 (mean 0.96).
S53R/Y60V/A102F: nd, 3.10, nd.
G33A/S53C/Y60C: 3.22, nd, nd.
S35D/Y60L/R100Q: nd, 3.43, nd.
I34A/Y60S: 3.44, nd, nd.
Y60H/V64M/A102L: nd, nd, 3.64.
G26H/Y60L/R100W: 4.20, 4.08, 3.12 (mean 3.80).
G33N/Y60P/D106G: nd, nd, 3.82.
L29A/Y60W/G103A: nd, nd, 3.87.
I51N/Y60G/T104W: nd, nd, 4.01.
T58Y/Y60F/V64A: nd, 4.03, 4.62 (mean 4.32).
Y32H/Y60C/G99C: nd, 4.33, nd.
Y52C/Y60S/D62L: 4.02, nd, 5.11 (mean 4.57).
S53D/Y60A/D106F: nd, 4.83, 4.32 (mean 4.57).
T28C/Y60I/G103S: 5.53, nd, 4.10 (mean 4.81).
S35G/R57N/Y60C: 5.42, nd, nd.
G26R/Y60V/G99Y: nd, nd, nd.
N30Y/Y60F/A101P: nd, nd, nd.
F27P/G33W/Y60L: nd, nd, nd.
V50H/Y60E/A102D: nd, nd, nd.
F27N/Y60L/V64L: nd, nd, nd.
Y60R/G61H/A102W: nd, nd, nd.
Y32N/Y60P/K65W: nd, nd, nd.
S53L/T58Y/Y60M: nd, nd, nd.
T28H/Y60Q: nd, nd, nd.
G55V/Y60H/K65S: nd, nd, nd.
S31Y/Y60S/G61Y: nd, nd, nd.
G26P/Y32D/Y60L: nd, nd, nd.
I51T/Y60Q/G103I: nd, nd, nd.
R56P/R57I/Y60A: nd, nd, nd.
L29M/R56F/Y60I: nd, nd, nd.
Y32R/Y60C/V64P: nd, nd, nd.
R57D/Y60T/R100G: nd, nd, nd.
F27G/S31G/Y60S: nd, nd, nd.
D54L/Y60L/R100H: nd, nd, nd.
I34Y/T58I/Y60D: nd, nd, nd.
S31P/F59K/Y60P: nd, nd, nd.
Y60P/V64D/D106W: nd, nd, nd.
N30L/T58L/Y60V: nd, nd, nd.
S53W/Y60H/S107V: nd, nd, nd.
Y60P/R100S: nd, nd, nd.

Extract of 6 entries:

{"changes": "N30L/T58L/Y60V", "log10 Kd (nM) by replicate": "nd, nd, nd", "mean, log10 nM": "nd"}
{"changes": "S53W/Y60H/S107V", "log10 Kd (nM) by replicate": "nd, nd, nd", "mean, log10 nM": "nd"}
{"changes": "Y52C/Y60S/D62L", "log10 Kd (nM) by replicate": "4.02, nd, 5.11", "mean, log10 nM": "4.57"}
{"changes": "Y32H/Y60C/G99C", "log10 Kd (nM) by replicate": "nd, 4.33, nd", "mean, log10 nM": "4.33"}
{"changes": "G33N/Y60P/D106G", "log10 Kd (nM) by replicate": "nd, nd, 3.82", "mean, log10 nM": "3.82"}
{"changes": "S35G/R57N/Y60C", "log10 Kd (nM) by replicate": "5.42, nd, nd", "mean, log10 nM": "5.42"}

For reference, the parent read 0.65 as the reference entry and 4.11 (one replicate of three) as a member of this library.
As a blank, each scFv also met three strains without target: over library AAYL49, 15% of these pairings were detected, typically at 4.06 and seldom below 2.83.